Values of other authors in article PMC9504419, “Multipotent Cholinesterase Inhibitors for the Treatment of Alzheimer’s Disease: Synthesis, Biological Analysis and Molecular Docking Study of Benzimidazole-Based Thiazole Derivatives” (Molecules, 2022).

Chains of the proteins cited; added tags and fusions are not shown. Residues count along the entry.
UniProt P22303, 32-614: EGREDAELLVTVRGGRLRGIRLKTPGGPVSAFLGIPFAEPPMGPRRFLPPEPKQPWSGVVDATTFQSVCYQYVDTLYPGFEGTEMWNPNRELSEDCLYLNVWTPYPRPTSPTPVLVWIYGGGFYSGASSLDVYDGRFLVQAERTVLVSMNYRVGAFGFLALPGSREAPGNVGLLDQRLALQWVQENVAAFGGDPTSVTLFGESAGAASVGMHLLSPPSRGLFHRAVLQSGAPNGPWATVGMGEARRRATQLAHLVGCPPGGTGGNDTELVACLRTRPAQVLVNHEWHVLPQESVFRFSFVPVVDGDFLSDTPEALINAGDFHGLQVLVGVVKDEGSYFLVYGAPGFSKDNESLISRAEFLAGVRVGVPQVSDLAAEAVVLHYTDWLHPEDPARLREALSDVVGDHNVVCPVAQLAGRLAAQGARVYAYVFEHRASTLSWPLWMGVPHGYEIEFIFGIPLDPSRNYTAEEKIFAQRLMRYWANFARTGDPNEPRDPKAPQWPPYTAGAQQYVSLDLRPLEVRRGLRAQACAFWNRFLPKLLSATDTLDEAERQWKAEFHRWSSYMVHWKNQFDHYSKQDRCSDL

Target: AChE (Homo sapiens, UniProt P22303)
Design: method as in PMID 31699396
Settings: read-out: inhibitory efficacy (IC50) against the AChE activity; under ideal test circumstances; cited from earlier work

O=C(CCC1CCN(Cc2ccccc2)CC1)c1ccc2c(c1)NCCCC2 [TAK-147]
IC50: 12 nM
